Reference: patent publication US12539311B2, “Short-acting heparin-based anticoagulant compounds and methods” (The University of North Carolina at Chapel Hill, priority 2017, dated 2026)

The chains behind the UniProt entries cited, without tags or fusion partners. Residues count along the entry.
UniProt P01008, 33-464 limits assumed: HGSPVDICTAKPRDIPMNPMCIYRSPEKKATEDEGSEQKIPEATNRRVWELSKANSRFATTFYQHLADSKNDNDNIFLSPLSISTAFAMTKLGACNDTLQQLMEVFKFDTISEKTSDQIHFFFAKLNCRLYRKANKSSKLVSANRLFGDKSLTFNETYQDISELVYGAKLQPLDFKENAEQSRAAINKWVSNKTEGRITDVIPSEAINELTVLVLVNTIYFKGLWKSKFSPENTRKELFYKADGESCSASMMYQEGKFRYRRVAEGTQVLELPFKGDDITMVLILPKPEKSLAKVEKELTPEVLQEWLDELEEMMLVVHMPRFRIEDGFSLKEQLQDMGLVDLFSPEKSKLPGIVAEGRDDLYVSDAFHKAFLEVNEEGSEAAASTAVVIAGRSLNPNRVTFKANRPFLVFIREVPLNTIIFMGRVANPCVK

Molecular target: antithrombin (AT) (Homo sapiens, UniProt P01008)
Experiment: AT-binding affinity analysis using isothermal titration calorimetry (ITC)

## O=C(O)[C@H]1O[C@@H](Oc2ccc([N+](=O)[O-])cc2)[C@H](O)[C@@H](O)[C@@H]1O[C@H]1O[C@H](COS(=O)(=O)O)[C@@H](O[C@@H]2O[C@@H](C(=O)O)[C@@H](O[C@H]3O[C@H](COS(=O)(=O)O)[C@@H](O[C@@H]4O[C@@H](C(=O)O)[C@@H](O[C@H]5O[C@H](COS(=O)(=O)O)[C@@H](O[C@@H]6O[C@H](C(=O)O)[C@@H](O[C@H]7O[C@H](COS(=O)(=O)O)[C@@H](O)[C@H](O)[C@H]7NS(=O)(=O)O)[C@H](O)[C@H]6O)[C@H](OS(=O)(=O)O)[C@H]5NS(=O)(=O)O)[C@H](O)[C@H]4OS(=O)(=O)O)[C@H](OS(=O)(=O)O)[C@H]3NS(=O)(=O)O)[C@H](O)[C@H]2OS(=O)(=O)O)[C@H](O)[C@H]1NS(=O)(=O)O
  binding to AT (in words): high AT-binding affinity
